Assay results: US20240116920A1 (priority 2020, published 2024)

The chains behind the UniProt entries cited, without tags or fusion partners. Where a name states a change or a piece, a line headed by the entry shows the natural chain unless it says otherwise.
UniProt P23458: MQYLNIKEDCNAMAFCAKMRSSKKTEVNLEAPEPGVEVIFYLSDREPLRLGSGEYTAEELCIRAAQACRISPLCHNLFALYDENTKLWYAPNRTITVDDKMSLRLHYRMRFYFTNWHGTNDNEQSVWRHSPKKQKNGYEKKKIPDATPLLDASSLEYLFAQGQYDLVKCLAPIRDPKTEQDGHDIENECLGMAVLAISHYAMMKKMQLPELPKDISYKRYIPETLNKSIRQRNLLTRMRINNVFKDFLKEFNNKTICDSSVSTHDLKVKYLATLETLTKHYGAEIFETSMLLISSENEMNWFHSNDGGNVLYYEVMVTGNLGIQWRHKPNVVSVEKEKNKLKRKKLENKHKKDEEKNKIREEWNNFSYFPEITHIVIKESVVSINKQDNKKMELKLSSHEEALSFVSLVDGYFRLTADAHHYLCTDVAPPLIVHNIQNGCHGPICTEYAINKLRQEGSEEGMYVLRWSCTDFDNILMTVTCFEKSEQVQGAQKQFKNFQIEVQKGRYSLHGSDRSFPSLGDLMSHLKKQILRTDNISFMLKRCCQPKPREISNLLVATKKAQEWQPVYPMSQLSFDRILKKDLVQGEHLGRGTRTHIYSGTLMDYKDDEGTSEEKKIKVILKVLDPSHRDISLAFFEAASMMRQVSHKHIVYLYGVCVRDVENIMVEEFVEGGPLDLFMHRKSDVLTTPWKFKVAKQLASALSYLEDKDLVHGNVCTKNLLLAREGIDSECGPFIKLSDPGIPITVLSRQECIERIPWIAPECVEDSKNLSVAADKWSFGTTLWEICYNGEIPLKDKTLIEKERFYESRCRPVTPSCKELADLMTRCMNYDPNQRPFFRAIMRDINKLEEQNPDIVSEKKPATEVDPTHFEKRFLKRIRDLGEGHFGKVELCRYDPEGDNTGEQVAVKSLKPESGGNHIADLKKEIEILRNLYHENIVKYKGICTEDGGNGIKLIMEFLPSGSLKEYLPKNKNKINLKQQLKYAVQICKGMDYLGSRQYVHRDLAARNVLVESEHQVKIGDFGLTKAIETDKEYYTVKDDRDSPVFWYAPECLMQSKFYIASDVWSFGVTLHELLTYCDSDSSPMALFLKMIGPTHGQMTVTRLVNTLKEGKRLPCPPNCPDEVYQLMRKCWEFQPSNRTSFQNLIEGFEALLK
UniProt P29597: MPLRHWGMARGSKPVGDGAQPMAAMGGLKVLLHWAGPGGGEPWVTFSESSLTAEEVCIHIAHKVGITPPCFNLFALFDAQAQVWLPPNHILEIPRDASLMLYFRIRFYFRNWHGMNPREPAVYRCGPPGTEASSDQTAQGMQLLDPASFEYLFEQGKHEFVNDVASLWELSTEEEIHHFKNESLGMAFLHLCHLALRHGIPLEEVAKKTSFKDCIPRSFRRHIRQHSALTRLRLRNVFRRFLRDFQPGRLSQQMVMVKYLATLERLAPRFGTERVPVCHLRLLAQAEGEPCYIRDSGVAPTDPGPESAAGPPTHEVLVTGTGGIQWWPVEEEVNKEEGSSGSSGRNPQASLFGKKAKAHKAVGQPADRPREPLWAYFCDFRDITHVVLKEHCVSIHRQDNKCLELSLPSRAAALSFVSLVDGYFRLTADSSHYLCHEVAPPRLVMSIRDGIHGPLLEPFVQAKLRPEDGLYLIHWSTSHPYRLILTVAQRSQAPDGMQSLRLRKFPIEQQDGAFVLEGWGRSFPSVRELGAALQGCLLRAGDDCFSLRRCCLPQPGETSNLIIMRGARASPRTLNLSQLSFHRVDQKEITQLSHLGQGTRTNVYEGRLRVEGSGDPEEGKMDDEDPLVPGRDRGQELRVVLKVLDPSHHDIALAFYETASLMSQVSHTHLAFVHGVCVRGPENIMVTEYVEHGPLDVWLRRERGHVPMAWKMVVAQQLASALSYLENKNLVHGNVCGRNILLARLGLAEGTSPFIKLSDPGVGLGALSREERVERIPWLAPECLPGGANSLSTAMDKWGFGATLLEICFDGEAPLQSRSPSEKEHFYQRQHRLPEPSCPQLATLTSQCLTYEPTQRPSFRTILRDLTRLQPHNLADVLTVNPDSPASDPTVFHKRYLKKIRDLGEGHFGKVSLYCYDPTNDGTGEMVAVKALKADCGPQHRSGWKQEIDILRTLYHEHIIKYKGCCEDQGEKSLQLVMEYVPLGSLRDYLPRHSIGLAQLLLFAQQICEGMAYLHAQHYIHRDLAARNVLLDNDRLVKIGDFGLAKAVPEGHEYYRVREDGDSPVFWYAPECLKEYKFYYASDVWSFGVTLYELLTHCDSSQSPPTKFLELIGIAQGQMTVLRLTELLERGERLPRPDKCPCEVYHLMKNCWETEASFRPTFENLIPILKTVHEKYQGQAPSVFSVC

What was measured:
JAK1 [1] = target: T1, JAK1 (Homo sapiens, UniProt P23458); assay: biochemical
TYK2 = TYK2 (Homo sapiens, UniProt P29597); assay: biochemical
JAK1 [2] = target: T1, JAK1; details: read-out: IC50 JAK1

Compound | IC50 (JAK1 [1]) | IC50 (TYK2) | IC50 (JAK1 [2])
CNC(=O)c1cnc2[nH]ccc2c1NC1CCN(Cc2ccc(Cl)cc2)C(C)(C)C1 (centres unmarked) [50c] | 125 nM | – | –
CNC(=O)c1cnc2[nH]ccc2c1N[C@@H]1CCN(Cc2cnc(C(F)(F)F)nc2)[C@H](C)C1 (racemic) [compound 49] | 3.04 nM | – | –
CNC(=O)c1cnc2[nH]ccc2c1N[C@@H]1CCN(Cc2ccc(C#N)cc2)C[C@H]1F (relative stereo) [43f, 4-((trans-1-(4-Cyanobenzyl)-3-fluoropiperidin-4-yl)amino)-N-methyl-1H-pyrrolo[2,3-b]pyridine-5-carboxamide] | 11.8 nM | – | –
CNC(=O)c1cnc2[nH]ccc2c1N[C@@H]1CCN(Cc2ccc(Cl)cc2)C[C@H]1F (relative stereo) [43b, 4-((trans-1-(4-Chlorobenzyl)-3-fluoropiperidin-4-yl)amino)-N-methyl-1H-pyrrolo[2,3-b]pyridine-5-carboxamide] | 48.4 nM | – | –
CNC(=O)c1cnc2[nH]ccc2c1NC1CCN(Cc2cccc(Cl)c2)CC1(F)F (centres unmarked) [45b] | 63.2 nM | – | –
CNC(=O)c1cnc2[nH]ccc2c1N[C@@H]1CCN(Cc2cccc(OC)c2)C[C@H]1F (relative stereo) [43c, 4-((trans-1-(3-Methoxybenzyl)-3-fluoropiperidin-4-yl)amino)-N-methyl-1H-pyrrolo[2,3-b]pyridine-5-carboxamide] | 16.5 nM | – | –
CNC(=O)c1cnc2[nH]ccc2c1NC1CCN(Cc2ccccc2)C(C)(C)C1 (centres unmarked) [50a, 4-((1-Benzyl-2,2-dimethylpiperidin-4-yl)amino)-N-methyl-1H-pyrrolo[2,3-b]pyridine-5-carboxamide] | 54.7 nM | – | –
CNC(=O)c1cnc2[nH]ccc2c1N[C@@H]1CCN(Cc2ccc(C(F)(F)F)cn2)[C@H](C)C1 (racemic) [47d] | 1.94 nM | 57.2 nM | –
CNC(=O)c1cnc2[nH]ccc2c1N[C@H]1CCN(Cc2cccc(C#N)c2)C[C@H]1F (relative stereo) [44e, 4-((cis-1-(3-Cyanobenzyl)-3-fluoropiperidin-4-yl)amino)-N-methyl-1H-pyrrolo[2,3-b] pyridine-5-carboxamide] | 3.15 nM | – | –
CNC(=O)c1cnc2[nH]ccc2c1N[C@H]1CCN(Cc2ccc(F)cc2)[C@@H](C)C1 (relative stereo) [46c, 4-((cis-1-(4-Fluorobenzyl)-2-methylpiperidin-4-yl)amino)-N-methyl-1H-pyrrolo[2,3-b]pyridine-5-carboxamide] | 3.44 nM | 8.42 nM | –
CNC(=O)c1cnc2[nH]ccc2c1N[C@@H]1CCN(Cc2ccccc2)C[C@H]1F (relative stereo) [43a, 4-((trans-1-Benzyl-3-fluoropiperidin-4-yl)amino)-N-methyl-1H-pyrrolo[2,3-b]pyridine-5-carboxamide] | 35.3 nM | – | –
CNC(=O)c1cnc2[nH]ccc2c1N[C@H]1CCN(Cc2ccc(C(F)(F)F)nc2)[C@@H](C)C1 (relative stereo) [48c, N-Methyl-4-((cis-2-methyl-1-((6-(trifluoromethyl)pyridin-3-yl)methyl)piperidin-4-yl)amino)-1H-pyrrolo[2,3-b]pyridine-5-carboxamide] | 3.65 nM | 74.9 nM | –
CNC(=O)c1cnc2[nH]ccc2c1NC1CCN(Cc2ccc(C#N)cc2)CC1(F)F (centres unmarked) [45g] | 252 nM | – | –
CNC(=O)c1cnc2[nH]ccc2c1N[C@H]1CCN(Cc2ccc(C#N)cc2)C[C@H]1F (relative stereo) [44f, 4-((cis-1-(4-Cyanobenzyl)-3-fluoropiperidin-4-yl)amino)-N-methyl-1H-pyrrolo[2,3-b]pyridine-5-carboxamide] | 8.32 nM | – | –
4-(42S,4S)-1-(4-Chlorobenzyl)-2-methylpiperidin-4-yl)amino)-N-methyl-1H-pyrrolo[2,3-b]pyridine-5-carboxamide [56a] | – | – | 0.552 nM
CNC(=O)c1cnc2[nH]ccc2c1N[C@H]1CCN(Cc2cccc(F)c2)[C@@H](C)C1 (relative stereo) [46b, 4-((cis-1-(3-Fluorobenzyl)-2-methylpiperidin-4-yl)amino)-N-methyl-1H-pyrrolo[2,3-b]pyridine-5-carboxamide] | 21.2 nM | 75.9 nM | –
CNC(=O)c1cnc2[nH]ccc2c1NC1CCN(Cc2cccc(Cl)c2)C(C)(C)C1 (centres unmarked) [50b, 4-((1-(3-Chlorobenzyl)-2,2-dimethylpiperidin-4-yl)amino)-N-methyl-1H-pyrrolo[2,3-b]pyridine-5-carboxamide] | 17.1 nM | – | –
CNC(=O)c1cnc2[nH]ccc2c1N[C@H]1CCN(Cc2ccc(OC)cc2)C[C@H]1F (relative stereo) [44d, 4-((cis-1-(4-Methoxybenzyl)-3-fluoropiperidin-4-yl)amino)-N-methyl-1H-pyrrolo[2,3-b]pyridine-5-carboxamide] | 7.27 nM | – | –

Compound | IC50 (JAK1 [1]) | IC50 (TYK2) | IC50 (JAK1 [2])
CNC(=O)c1cnc2[nH]ccc2c1N[C@@H]1CCN(Cc2cccc(C#N)c2)C[C@H]1F (relative stereo) [43e, 4-((trans-1-(3-Cyanobenzyl)-3-fluoropiperidin-4-yl)amino)-N-methyl-1H-pyrrolo[2,3-b]pyridine-5-carboxamide] | 15 nM | – | –
CNC(=O)c1cnc2[nH]ccc2c1NC1CCN(Cc2cccc(C#N)c2)CC1(F)F (centres unmarked) [45f] | 205 nM | – | –
CNC(=O)c1cnc2[nH]ccc2c1N[C@H]1CCN(Cc2ccccc2)C[C@H]1F (relative stereo) [44a, 4-((cis-1-Benzyl-3-fluoropiperidin-4-yl)amino)-N-methyl-1H-pyrrolo[2,3-b]pyridine-5-carboxamide] | 12 nM | – | –
CNC(=O)c1cnc2[nH]ccc2c1N[C@@H]1CCN(Cc2ccc(C#N)cn2)[C@H](C)C1 (racemic) [47c] | 6.72 nM | 44.9 nM | –
CNC(=O)c1cnc2[nH]ccc2c1NC1CCN(Cc2cccc(OC)c2)CC1(F)F (centres unmarked) [45d] | 365 nM | – | –
CNC(=O)c1cnc2[nH]ccc2c1NC1CCN(Cc2ccc(Cl)cn2)C(C)C1 (racemic) [47a, 4-((cis-14(5-Chloropyridin-2-yl)methyl)-2-methylpiperidin-4-yl)amino)-N-methyl-1H-pyrrolo[2,3-b]pyridine-5-carboxamide] | 0.734 nM | 40.3 nM | –
4-(42R,4R)-1-(4-Chlorobenzyl)-2-methylpiperidin-4-yl)amino)-N-methyl-1H-pyrrolo[2,3-b]pyridine-5-carboxamide [56b] | – | – | 181 nM
CNC(=O)c1cnc2[nH]ccc2c1N[C@H]1CCN(Cc2ccc(Cl)cc2)C[C@H]1F (relative stereo) [44c, 4-((cis-1-(4-Chlorobenzyl)-3-fluoropiperidin-4-yl)amino)-N-methyl-1H-pyrrolo[2,3-b]pyridine-5-carboxamide] | 4.24 nM | – | –
CNC(=O)c1cnc2[nH]ccc2c1N[C@H]1CCN(Cc2cccc(Cl)c2)C[C@H]1F (relative stereo) [44b, 4-((cis-1-(3-Chlorobenzyl)-3-fluoropiperidin-4-yl)amino)-N-methyl-1H-pyrrolo[2,3-b]pyridine-5-carboxamide] | 6.39 nM | – | –
CNC(=O)c1cnc2[nH]ccc2c1N[C@@H]1CCN(Cc2ccc(Cl)nc2)[C@H](C)C1 (racemic) [48a] | 3.31 nM | 31.6 nM | –
CNC(=O)c1cnc2[nH]ccc2c1NC1CCN(Cc2ccc(Cl)cc2)CC1(F)F (centres unmarked) [45c] | 45.5 nM | – | –
CNC(=O)c1cnc2[nH]ccc2c1N[C@H]1CCN(Cc2ccccc2F)[C@@H](C)C1 (relative stereo) [46a, 4-((cis-1-(2-Fluorobenzyl)-2-methylpiperidin-4-yl)amino)-N-methyl-1H-pyrrolo[2,3-b]pyridine-5-carboxamide] | 13 nM | 38.7 nM | –
CNC(=O)c1cnc2[nH]ccc2c1N[C@@H]1CCN(Cc2cccc(C#N)n2)[C@H](C)C1 (racemic) [47b] | 3.75 nM | 16.6 nM | –
CNC(=O)c1cnc2[nH]ccc2c1NC1CCN(Cc2ccc(OC)cc2)CC1(F)F (centres unmarked) [45e] | 118 nM | – | –
CNC(=O)c1cnc2[nH]ccc2c1NC1CCN(Cc2ccccc2)CC1(F)F (centres unmarked) [45a] | 105 nM | – | –
CNC(=O)c1cnc2[nH]ccc2c1NC1CCN(Cc2ccc(OC)cc2)CC1F (stereo not drawn) [43d, 4-((trans-1-(4-Methoxybenzy0-3-fluoropiperidin-4-yl)amino)-N-methyl-1H-pyrrolo[2,3-b]pyridine-5-carboxamide] | 73.6 nM | – | –
CNC(=O)c1cnc2[nH]ccc2c1N[C@@H]1CCN(Cc2ccc(C#N)nc2)[C@H](C)C1 (racemic) [48b] | – | 13.1 nM | –

Like-named read-outs stand apart in the source and are kept apart here.
